Antibody variant affinities, Ab-91 heavy chain, assay 2

Data: MIT Lincoln Laboratory AlphaSeq set, Engelhart et al. 2022, doi:10.1038/s41597-022-01779-4, as distributed in FLAb.

Binding partner: SARS-CoV-2 spike HR2 peptide, sequence PDVDLGDISGINAS.

Parent: Ab-91, a human scFv built as VL, a (GGGGS)3 linker, VH. Only the CDRs of the heavy chain vary.
VL: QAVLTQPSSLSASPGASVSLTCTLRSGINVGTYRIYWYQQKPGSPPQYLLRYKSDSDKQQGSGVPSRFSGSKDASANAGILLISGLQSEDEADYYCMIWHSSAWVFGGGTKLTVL
VH: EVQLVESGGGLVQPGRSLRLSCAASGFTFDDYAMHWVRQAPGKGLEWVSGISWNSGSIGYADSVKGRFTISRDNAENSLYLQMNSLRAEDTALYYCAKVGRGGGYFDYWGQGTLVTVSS

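Phage display of a naive human antibody library on the peptide gave the parent. In library AAYL51, one, two or three CDR residues were substituted; doubles and triples were drawn at random. Affinity was read by AlphaSeq, a pooled yeast mating assay with surface-displayed partners. Binding brings cells together so that they mate, and sequencing counts the barcode pairs among the diploids. A regression on co-assayed BCL2-family reference pairs converts the normalised counts of each replicate to an apparent Kd. There are three technical replicates.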

Substitutions are numbered in sequence along the VH above, starting at 1 (not Kabat). Every variant below is changed at I58 of the VH (sequential numbering). Each Kd is an estimate from the mating assay, the geometric mean of the replicates in which the pair was seen; lower is stronger. "no signal" marks a missing value. The strain was present, yet no cells mated with the target were sequenced in any replicate, which points to weak or no binding. Parent in this assay: reference entry 72 nM, copy in this library 7.5 nM. Three control strains display no target. For library AAYL51, 21% of the pairings with them gave a signal, with a median of 34 µM and one signal in twenty below 1.8 µM, so weak values seen in few replicates may be background. Also given: how often the same scFv was detected with the empty control strains.

With F27Y/I58Q the result was no signal (0 of 3 replicates; controls 0 of 9).
With S52G/I58R/G104F the result was no signal (0 of 3 replicates; controls 0 of 9).
With G56M/I58S/R101N the result was 6.7 nM (3 of 3 replicates; controls 2 of 9).
With D30F/I58V/A61H the result was 760 nM (3 of 3 replicates; controls 5 of 9).
With T28R/I58N/G103I the result was no signal (0 of 3 replicates; controls 0 of 9).
With I58K/G59E/Y60K the result was 4.0 µM (1 of 3 replicates; controls 0 of 9).
With G56W/I58P/R101T the result was 71 µM (1 of 3 replicates; controls 1 of 9).
With D31K/I58R the result was no signal (0 of 3 replicates; controls 0 of 9).
With G50F/I58E/D107G the result was 140 µM (1 of 3 replicates; controls 3 of 9).
With I58E/D107Q the result was no signal (0 of 3 replicates; controls 0 of 9).
With I51R/S55C/I58F the result was no signal (0 of 3 replicates; controls 0 of 9).
With F27G/H35T/I58F the result was no signal (0 of 3 replicates; controls 2 of 9).
With I58V/V64S the result was 930 nM (3 of 3 replicates; controls 2 of 9).
With M34R/S55T/I58P the result was 120 µM (2 of 3 replicates; controls 0 of 9).
With S55L/I58K/V64Y the result was no signal (0 of 3 replicates; controls 1 of 9).
With I58K/K65P/G100Q the result was 6.5 µM (1 of 3 replicates; controls 2 of 9).
With G56P/I58E/G59S the result was 16 µM (1 of 3 replicates; controls 6 of 9).
With S52C/I58Y/G103V the result was 240 µM (2 of 3 replicates; controls 5 of 9).
With G26A/I58D/R101G the result was 60 nM (3 of 3 replicates; controls 2 of 9).
With A33S/S55L/I58P the result was 9.0 µM (3 of 3 replicates; controls 0 of 9).
With A33Y/I58E/D107M the result was no signal (0 of 3 replicates; controls 1 of 9).
With M34D/I58T the result was no signal (0 of 3 replicates; controls 1 of 9).
With G26Y/I58T/Y105K the result was no signal (0 of 3 replicates; controls 0 of 9).
With F29M/I58Y/V99A the result was no signal (0 of 3 replicates; controls 0 of 9).
With I58C the result was 2.1 µM (3 of 3 replicates; controls 3 of 9).
With F27K/T28E/I58Y the result was no signal (0 of 3 replicates; controls 0 of 9).
With H35Y/I51Y/I58K the result was no signal (0 of 3 replicates; controls 3 of 9).
With F27D/A33K/I58M the result was 210 µM (2 of 3 replicates; controls 3 of 9).
With I58A/A61F/K65D the result was 97 µM (3 of 3 replicates; controls 5 of 9).
With F27G/I58N/S63H the result was 420 nM (1 of 3 replicates; controls 1 of 9).
With I58H/R101S/G104M the result was no signal (0 of 3 replicates; controls 1 of 9).
With S52G/I58L the result was no signal (0 of 3 replicates; controls 1 of 9).
With I51M/I58F/A61G the result was no signal (0 of 3 replicates; controls 0 of 9).
With I58N the result was 10 µM (1 of 3 replicates; controls 2 of 9).

The opening 4 entries, copied out:

The variant F27Y/I58Q gave no signal (0 of 3 replicates; controls 0 of 9).
The variant S52G/I58R/G104F gave no signal (0 of 3 replicates; controls 0 of 9).
The variant G56M/I58S/R101N gave 6.7 nM (3 of 3 replicates; controls 2 of 9).
The variant D30F/I58V/A61H gave 760 nM (3 of 3 replicates; controls 5 of 9).